The record followed here is patent publication US4743611A, “Naphthalenylsulfonylimidazolidinediones and their thioxo analogs useful as aldose reductase inhibitors” (American Home Products Corp., priority 1987, dated 1988).

The target of this experiment is T1, aldose reductase (Bos taurus, UniProt P16116).
T1 construct: preparation of the enzyme from bovine lens; from tissue; host or cells: bovine lens
Description: in vitro inhibition of aldose reductase (enzyme from bovine lens, modified Hayman and Kinoshita procedure). Format: biochemical. The following applies: read-out: % inhibition in vitro. The protocol: […] The aldose reductase inhibiting effects of the compounds of formula (I) were also tested by employing an in vitro testing procedure similar to that described by S. Hayman and J. H. Kinoshita, J. Biol. Chem., 240, 877 (1965).
In the present case the procedure of Hayman and Kinoshita was modified in that the final chromatography step was omitted in the preparation of the enzyme from bovine lens.

Consider `O=C1CN(S(=O)(=O)c2cccc3c(I)cccc23)C(=O)N1` [Example 18, 1-[(5-iodo-1-naphthalenyl)sulfonyl]-2,4-imidazolidinedione], for which the inhibition – broadly, the percentage by which the read-out fell short of the control – at 10 µM was 94%.
